These results are taken from patent publication US20120045393A1 (priority 2009, published 2012).

The subject of the assay is LHRH binding sites on human ovarian cancer cells (EFO-27).

Like-named read-outs stand apart in the source and are kept apart here.
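Also: Cell-associated radioactivity on confluent EFO-27 monolayers in 96-well plates, measured by microplate scintillation counting.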

Broadly, the EC50 is the concentration needed to bring the measured effect to its halfway point. As to `N=C(N)NCCC[C@H](NC(=O)[C@@H](Cc1ccc2ccccc2c1)NC(=O)CN1CCN(CC(=O)O)CCN(CC(=O)O)CCN(CC(=O)O)CC1)C(=O)N[C@@H](Cc1ccccc1)C(=O)N[C@@H](CO)C(=O)N[C@@H](Cc1c[nH]cn1)C(=O)N[C@H](CCCNC(=N)N)C(=O)N[C@@H](Cc1c[nH]c2ccccc12)C(=O)N[C@@H](Cc1ccc(C(=O)c2ccccc2)cc1)C(=O)N1CCC[C@H]1C(=O)NNC(N)=O` [compound 3106], the EC50 is 0.43 µM.

As for `N=C(N)NCCC[C@H](NC(=O)[C@@H](Cc1ccc2ccccc2c1)NC(=O)CN1CCN(CC(=O)O)CCN(CC(=O)O)CCN(CC(=O)O)CC1)C(=O)N[C@@H](Cc1c[nH]c2ccccc12)C(=O)N[C@@H](CN)C(=O)N[C@@H](Cc1c[nH]cn1)C(=O)N[C@H](CCCNC(=N)N)C(=O)N[C@@H](Cc1c[nH]c2ccccc12)C(=O)N[C@@H](Cc1ccc(C(=O)c2ccccc2)cc1)C(=O)N1CCC[C@H]1C(=O)NNC(N)=O` [compound 2955], a half-maximal response (EC50) required 0.41 µM.

`N=C(N)NCCC[C@H](NC(=O)[C@@H](Cc1ccc2ccccc2c1)NC(=O)CN1CCN(CC(=O)O)CCN(CC(=O)O)CCN(CC(=O)O)CC1)C(=O)N[C@@H](Cc1c[nH]c2ccccc12)C(=O)N[C@@H](CC(N)=O)C(=O)N[C@@H](Cc1c[nH]cn1)C(=O)N[C@H](CCCNC(=N)N)C(=O)N[C@@H](Cc1c[nH]c2ccccc12)C(=O)N[C@@H](Cc1ccc(C(=O)c2ccccc2)cc1)C(=O)N1CCC[C@H]1C(=O)NNC(N)=O` [compound 2956] returned an EC50 of 0.28 µM.

In turn, `N=C(N)NCCC[C@H](NC(=O)[C@H](CNC(=O)CN1CCN(CC(=O)O)CCN(CC(=O)O)CCN(CC(=O)O)CC1)NS(=O)(=O)c1ccccc1)C(=O)N[C@@H](Cc1c[nH]c2ccccc12)C(=O)N[C@@H](CO)C(=O)N[C@@H](Cc1c[nH]cn1)C(=O)N[C@H](CCCNC(=N)N)C(=O)N[C@@H](Cc1c[nH]c2ccccc12)C(=O)N[C@@H](Cc1ccc(C(=O)c2ccccc2)cc1)C(=O)N1CCC[C@H]1C(=O)NNC(N)=O` [BRU-3056] displayed an EC50 of 0.44 µM.

With `N=C(N)NCCC[C@H](NC(=O)[C@@H](Cc1ccc2ccccc2c1)NC(=O)CNC(=O)CN1CCN(CC(=O)O)CCN(CC(=O)O)CCN(CC(=O)O)CC1)C(=O)N[C@@H](Cc1c[nH]c2ccccc12)C(=O)N[C@@H](CO)C(=O)N[C@@H](Cc1c[nH]cn1)C(=O)N[C@H](CCCNC(=N)N)C(=O)N[C@@H](Cc1c[nH]c2ccccc12)C(=O)N[C@@H](Cc1ccc(C(=O)c2ccccc2)cc1)C(=O)N1CCC[C@H]1C(=O)NNC(N)=O` [BRU-2962], the EC50 (read-out: EC50 μM, Underivatized LHRH peptides and LHRH peptides with chelator on N-terminus, EFO-27 cells) turned out to be 0.47 µM.

`N=C(N)NCCC[C@H](NC(=O)[C@@H](Cc1ccc2ccccc2c1)NC(=O)CN1CCN(CC(=O)O)CCN(CC(=O)O)CCN(CC(=O)O)CC1)C(=O)N[C@@H](Cc1ccc2ccccc2c1)C(=O)N[C@@H](CO)C(=O)N[C@@H](Cc1c[nH]cn1)C(=O)N[C@H](CCCNC(=N)N)C(=O)N[C@@H](Cc1c[nH]c2ccccc12)C(=O)N[C@@H](Cc1ccc(C(=O)c2ccccc2)cc1)C(=O)N1CCC[C@H]1C(=O)NNC(N)=O` [compound 3105] came in with an EC50 of 0.22 µM.

`CC(=O)N[C@@H](Cc1ccc(CN)cc1)C(=O)N[C@@H](Cc1c[nH]cn1)C(=O)N[C@@H](Cc1c[nH]c2ccccc12)C(=O)N[C@@H](CO)C(=O)N[C@@H](Cc1c[nH]cn1)C(=O)N[C@H](CCCNC(=N)N)C(=O)N[C@@H](Cc1c[nH]c2ccccc12)C(=O)N[C@@H](Cc1ccc(C(=O)c2ccccc2)cc1)C(=O)N1CCC[C@H]1C(=O)NNC(N)=O` [BRU-2839] displayed an EC50 of 0.25 µM.

`N=C(N)NCCC[C@H](NC(=O)[C@H](Cc1ccc(Oc2ccc(O)cc2)cc1)NC(=O)CN1CCN(CC(=O)O)CCN(CC(=O)O)CCN(CC(=O)O)CC1)C(=O)N[C@@H](Cc1c[nH]c2ccccc12)C(=O)N[C@@H](CO)C(=O)N[C@@H](Cc1c[nH]cn1)C(=O)N[C@H](CCCNC(=N)N)C(=O)N[C@@H](Cc1c[nH]c2ccccc12)C(=O)N[C@@H](Cc1ccc(C(=O)c2ccccc2)cc1)C(=O)N1CCC[C@H]1C(=O)NNC(N)=O` [BRU-3069] returned an EC50 (Table 5: modifications of amino acids at positions 1 and 2, in vitro binding on EFO-27 cells) of 0.38 µM.
